## scFv variants of Ab-95 (light chain) against a SARS-CoV-2 spike peptide

Values reported by Engelhart et al. 2022, doi:10.1038/s41597-022-01779-4 (FLAb copy).

Binding partner: SARS-CoV-2 spike HR2 peptide, sequence PDVDLGDISGINAS.

Each scFv is VH, three GGGGS repeats, VL, as in the parent Ab-95, and differs from it in the CDRs of the light chain only.
VH: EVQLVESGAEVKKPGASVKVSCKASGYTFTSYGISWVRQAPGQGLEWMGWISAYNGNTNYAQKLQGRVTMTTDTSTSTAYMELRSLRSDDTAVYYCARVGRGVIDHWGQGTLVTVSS
VL: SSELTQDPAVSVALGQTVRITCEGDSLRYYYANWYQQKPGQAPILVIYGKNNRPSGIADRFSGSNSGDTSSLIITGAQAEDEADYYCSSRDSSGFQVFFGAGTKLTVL

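AAYL52 was designed without a model: most single CDR substitutions and a random sample of double and triple ones. In AlphaSeq, yeast of one mating type display the scFv and yeast of the other type display the target. The frequency of each diploid, read from paired DNA barcodes, reflects how well the two displayed proteins bind. Each replicate has its own calibration line, from reference interactions of the BCL2 family. Each pool was mated in three replicate cultures.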

Each variant is given by its three light chain CDRs, as the data file delimits them; those of the parent are EGDSLRYYYAN, GKNNRPS, SSRDSSGFQVF. Values are log10 of the apparent Kd in nM; lower means stronger binding. A mean of the replicates is given; it leaves out those without a signal. "no signal" means that the variant was in the library but no mating with the target was seen in any replicate; the authors take this as a sign of poor binding, and no number exists.

CDR-L1 | CDR-L2 | CDR-L3 | mean log10 Kd (nM) | detected
AGDSLRYYYAN | GKNNRPS | SMRDSSGFQVF | 3.48 | 3 of 3
EGDSLKYYYAN | GKGNWPS | SSRDSSGFQVF | no signal | 0 of 3
EGDSLRYYYEN | GKWNRPS | SSRDSSGFQVF | 3.61 | 2 of 3
EGDYLRYYYEN | GKNNRPS | SSRDSSGFQVC | 5.00 | 1 of 3
EGVSLRYYYAN | GANNRPS | SSRDSSHFQVF | 2.94 | 3 of 3
EGDSLRYYPKN | GKNNRPS | SSRDSSGFQVF | 2.90 | 1 of 3
EGDSLRYYYAK | GKNNRPS | QGRDSSGFQVF | 3.32 | 1 of 3
EDDSLRYYYAN | GKNNRNS | SSRDSSWFQVF | no signal | 0 of 3
EGDSLRAYYAN | LKNNRPS | SSRGSSGFQVF | 4.28 | 1 of 3
EGDSHRYQYAN | GKENRPS | SSRDSSGFQVF | 2.00 | 3 of 3
EGDSLRYYYAN | GKNNRPM | SSRDSSGFYVF | 2.17 | 3 of 3
EGDSLRYYQAN | GKNNRPS | FSPDSSGFQVF | 2.05 | 3 of 3
EGDSLRYYYAN | GKNNRWS | SSRTSSFFQVF | no signal | 0 of 3
EGDSLREYYAN | GKNNRPS | SCRDSSGFSVF | 3.15 | 3 of 3
EGDSLQYYYAN | GKNNRIS | SDRDSSGFQVF | 4.40 | 1 of 3
EGDSLRYYYAN | WCNNRPS | SSRDSSGFQAF | no signal | 0 of 3
EGDSLRYYYAN | GKNNRPN | SSQDSGGFQVF | no signal | 0 of 3
EGDSLRYYYAN | GENNRPS | SSRDSSGFQQN | 3.18 | 3 of 3
EGDSLRYFYAN | TKNNRPS | SSRDSSIFQVF | 4.62 | 2 of 3
EADSLRYYYAN | GKNNRPS | SDNDSSGFQVF | 3.74 | 3 of 3
EGPSLRYYYAN | GKNNRPY | SSRDSSDFQVF | 3.68 | 3 of 3
EGDSLRYYYAH | GKKNRPS | SIRDSSGFQVF | no signal | 0 of 3
EGDSLRYYYAN | GKNNRPS | SSMDSSGFQCF | 2.37 | 3 of 3
EGDSLRYYYAN | HKNNRPS | CSRDSCGFQVF | 3.35 | 1 of 3
EGDSLRYLYAN | NKNNRPS | SSRDSSGFQWF | 3.66 | 3 of 3
EGDSLRYGYAN | GKNNRPS | TSRTSSGFQVF | 1.63 | 3 of 3
EGDDLRHYYAN | GKNNRPS | SSRDSSGFLVF | 2.37 | 3 of 3
EGDSARYYYAN | GKNNRPS | SFRDSTGFQVF | 3.85 | 2 of 3

Further variants, results first:

mean log10 Kd (nM) | detected | CDR-L1 | CDR-L2 | CDR-L3
4.00 | 1 of 3 | EGGSLRYYYAM | GKNNRPS | SSRDSSGFQIF
3.66 | 1 of 3 | EGDSLRYYYAI | GGNNSPS | SSRDSSGFQVF
3.65 | 3 of 3 | EGDSFRYYYAN | GKNNRPS | SSRYSSGFQVT
4.39 | 2 of 3 | FGDSLRYYYAN | GHNNRPS | SSRDSSLFQVF
3.14 | 3 of 3 | EGDSLRYYYAN | GFGNRPK | SSRDSSGFQVF
2.83 | 3 of 3 | EGDSLLGYYAN | GKNNRPS | SSRDSSGFCVF
3.41 | 3 of 3 | EGDDLRYYYAN | GKNNRPS | SSRDGSGYQVF
3.48 | 1 of 3 | EGDSTRYYKAN | GKNNRPS | SSRDSEGFQVF
1.52 | 3 of 3 | EGDSLRYNYAN | GKNNRPS | SMRMSSGFQVF
3.14 | 1 of 3 | ELDSLRYKYAN | GKNNRPS | SSRDSSIFQVF
5.03 | 1 of 3 | EGDSVRYYYAN | LKNNRPS | SSRDSSGFQVY
3.77 | 3 of 3 | EGDSLRYYYAN | GKNNRPS | SARCSSTFQVF
3.23 | 1 of 3 | EGDSLRNYYAP | GKNNRPS | SSRDSSGFQVF
2.84 | 2 of 3 | EGNSLRYYYAN | GKNNRPS | SRRDSSGFQMF
4.17 | 2 of 3 | EGDSLRYYYAN | EKNNRPS | SSRDSTGFEVF
3.01 | 3 of 3 | EGDSLRYYYAN | GSVNRPS | SSRDSDGFQVF
1.71 | 3 of 3 | EGDSLRTYNAN | GKNNKPS | SSRDSSGFQVF
4.39 | 1 of 3 | EGDSLRYYYAN | GKNLRLS | SSFDSSGFQVF
2.77 | 3 of 3 | EEDSLRYYYAN | GKNNRPS | SSRDSSGWQVF
4.11 | 2 of 3 | EGDSLRYYYAN | FKNNKPS | SSRDSSGFQVF
3.00 | 3 of 3 | EGDSLRYYYAN | GKNNRTS | SSSDSSGFQYF
3.52 | 1 of 3 | EGDSHRYDYAN | GKNNRPS | SSRDSSAFQVF
5.16 | 1 of 3 | EGDSKRYYYVN | GKNNRPS | SSRDSMGFQVF
4.70 | 2 of 3 | EGDSRRYYYAN | DKNNRPS | SSRDSSGFQHF
3.23 | 3 of 3 | EGDSLRYYYAN | CKNNHRS | SSRDSSGFQVF
no signal | 0 of 3 | WGDSLRYYYAN | GKNNRQS | SSRDSSGFQVF
2.13 | 3 of 3 | EGDSLRYYYAN | GKNNRPS | SERDSVGFQVR
1.11 | 3 of 3 | EGDSLKYYYAN | GDNNRPS | SSRDHSGFQVF

Top 6 of the variants detected in all replicates, tightest first:

| CDR-L1 | CDR-L2 | CDR-L3 | mean log10 Kd (nM) | detected |
|---|---|---|---|---|
| EGDSLKYYYAN | GDNNRPS | SSRDHSGFQVF | 1.11 | 3 of 3 |
| EGDSLRYNYAN | GKNNRPS | SMRMSSGFQVF | 1.52 | 3 of 3 |
| EGDSLRYGYAN | GKNNRPS | TSRTSSGFQVF | 1.63 | 3 of 3 |
| EGDSLRTYNAN | GKNNKPS | SSRDSSGFQVF | 1.71 | 3 of 3 |
| EGDSHRYQYAN | GKENRPS | SSRDSSGFQVF | 2.00 | 3 of 3 |
| EGDSLRYYQAN | GKNNRPS | FSPDSSGFQVF | 2.05 | 3 of 3 |

Empty control strains, which show no peptide, gave a signal in 28% of pairings with library AAYL52; the median was 3.91 and 95% of these signals were weaker than 2.90. No background was subtracted.